Biological target: T1, Acetylcholinesterase (AChE, EC 3.1.1.7, from human erythrocyte) (Homo sapiens, UniProt P22303)
T1 construct: Acetylcholinesterase (AChE, EC 3.1.1.7, from human erythrocyte); purchased Sigma-Aldrich (Germany); host or cells: human erythrocytes
Assay: biochemical
Description: Acetylcholinesterase (AChE, EC 3.1.1.7, from human erythrocyte), butyrylcholinesterase (BChE, EC 3.1.1.8, from equine serum), carboxylesterase (CaE, EC 3.1.1.1, from porcine liver), acetylthiocholine iodide (ATCh), butylthiocholine iodide (BTCh), 5,5´-dithiobis-(2-nitrobenzoic acid) (DTNB), 4-nitrophenyl acetate (4-NPA), were purchased from Sigma-Aldrich (Germany).
AChE and BChE activities were measured by the method of Ellman and coworkers as described earlier. The assay solution consisted of 0.1 M K/Na phosphate buffer pH 7.5, 25 °C with the addition of 0.33 mM DTNB, 0.02 unit/mL of AChE or BChE and 1 mM of substrate (ATCh or BTCh, respectively). Assays were carried out with a blank containing all components except ATCh and BTCh in order to account for non-enzymatic reaction.
The tested compounds were dissolved in DMSO; the incubation mixture contained 2% of the solvent. […] The test compounds were added to the assay solution and preincubated at 25 °C with the enzymes for 10 min followed by the addition of substrate. A parallel control was made for the assay solution with no inhibitor. […] The results were expressed as the mean ± SEM. The reaction rates in the presence and absence of inhibitor were compared, and the percent of residual enzyme activity due to the presence of test compounds was calculated.

The chains behind the UniProt entries cited, without tags or fusion partners. A line that says so, or that is headed by a name, gives the form on record, which may keep a tag or linker.
UniProt P22303, other isoform, or with tags, fused parts or gaps: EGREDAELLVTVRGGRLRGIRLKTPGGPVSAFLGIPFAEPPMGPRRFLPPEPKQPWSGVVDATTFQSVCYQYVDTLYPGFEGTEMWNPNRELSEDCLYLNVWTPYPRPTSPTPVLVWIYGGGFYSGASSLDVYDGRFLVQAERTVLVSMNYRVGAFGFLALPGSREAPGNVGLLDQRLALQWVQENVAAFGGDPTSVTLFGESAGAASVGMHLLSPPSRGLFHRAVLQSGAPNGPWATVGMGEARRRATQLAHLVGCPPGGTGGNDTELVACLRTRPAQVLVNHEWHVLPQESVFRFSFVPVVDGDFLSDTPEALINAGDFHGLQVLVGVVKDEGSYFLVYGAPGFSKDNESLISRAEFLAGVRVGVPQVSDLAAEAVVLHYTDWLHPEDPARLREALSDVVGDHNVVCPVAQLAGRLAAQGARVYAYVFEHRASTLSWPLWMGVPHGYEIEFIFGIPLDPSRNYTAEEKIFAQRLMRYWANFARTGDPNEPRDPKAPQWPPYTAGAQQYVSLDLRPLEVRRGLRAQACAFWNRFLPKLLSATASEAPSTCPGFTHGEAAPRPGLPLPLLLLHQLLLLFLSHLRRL

CN(C)c1ccc2nc3ccc(=[N+](C)C)cc-3sc2c1 [MB, methylene blue, reference compound]
IC50: 1210 ± 90 nM
